From patent US8158372B2, “Agonists of a bitter taste receptor and uses thereof” (Deutsches Institut für Ernährungsforschung Potsdam-Rehbrücke, priority 2004, dated 2012)
Only a part of the results on these compounds is given; other tests are left out.

By UniProt entry, the sequences of proteins in these tests, tags left out.
UniProt Q9NYV8, whole entry: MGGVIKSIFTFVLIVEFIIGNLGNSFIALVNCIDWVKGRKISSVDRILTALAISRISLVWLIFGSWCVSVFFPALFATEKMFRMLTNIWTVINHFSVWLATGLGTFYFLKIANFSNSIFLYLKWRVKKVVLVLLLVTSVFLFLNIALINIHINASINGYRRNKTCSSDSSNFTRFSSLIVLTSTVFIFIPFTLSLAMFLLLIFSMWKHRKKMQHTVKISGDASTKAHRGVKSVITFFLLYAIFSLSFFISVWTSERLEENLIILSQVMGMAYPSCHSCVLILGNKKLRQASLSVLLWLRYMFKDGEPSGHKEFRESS

Biological target: hTAS2R14 (Homo sapiens, UniProt Q9NYV8)
Experiment: hTAS2R14 ligand screening, FLIPR calcium assay in transfected HEK-293T Gα16gust44 cells
Conditions: conc 524 μM

With `O=[N+]([O-])c1cc([N+](=O)[O-])c(O)c([N+](=O)[O-])c1` the response was “n.r”.
